Earlier results on four substances are cited in article PMC7021761 (Nature Communications, 2020).

The subject of this data set is FPR2 with D2817.32G mutation. The settings on record: compared with wild type FPR2; cited from earlier work.
Consider fMLF, for which the “effect of D281G mutation on affinity for FPR2” value (shortened to “effect of D281G mutation”) is on record as “greatly increase”. Regarding fMLFE, the “effect of D281G mutation” value is “greatly increase”.

Regarding fMLFIK, the “effect of D281G mutation” value is listed as “greatly decrease”. Consider fMLFK, for which the “effect of D281G mutation” value was “greatly decrease”.
